Source: US6350747B1, “3-(anilinomethylene) oxindoles” (Glaxo Wellcome Inc., priority 1999, dated 2002)

Target: T1, CDK2 (Homo sapiens, UniProt P24941)
T1 construct: made in house
Assay: CDK2 cyclin dependent protein kinase assay
Type: biochemical
Conditions: read-out: CDK2 kinase inhibition IC50
Protocol: Cyclin dependent protein kinase assays utilized the peptides Biotin-aminohexyl-[…] and Biotin-aminohexyl-[…]-NH2 as phosphoryl group acceptors. CDK1 and CDK2 were both expressed utilizing a baculovirus expression system and were partially purified to comprise 20-80% of total protein, with no detectable competing reactions present. Typically, assays were performed by incubating either enzyme (0.2-10 nM), with and without inhibitor, one of the two peptide substrates ([…]), [γ-^32P]ATP ([…]), and 10-20 mM Mg^2+ for periods of time generally within the range 10-120 min. Reactions were terminated with 0.2-2 volumes of either 20% acetic acid or 50-100 mM EDTA buffered to pH 7 (substrate consumption<20%). The buffer employed in enzyme assays was either 30 mM HEPES 7.4 containing 0.15 M NaCl and 5% DMSO, the buffer 50 mM MOPS 7.0 containing 0.15 M NaCl and 5% DMSO, or the buffer 100 mM HEPES pH 7.5 containing 0.1 mg/mL BSA and 5% DMSO. Inhibitors were diluted in 100% DMSO prior to addition into the assay. […]

In the case of CC(=O)N(C)c1ccc(N/C=C2\C(=O)Nc3ccc4ncsc4c32)cc1 [Example 58, N-Methyl-N-(4-{(Z)-[(7-oxo-6,7-dihydro-8H-[1,3]thiazolo[5,4-e]indol-8-ylidene)methyl]amino}phenyl)acetamide], the IC50 is reported as 11 to 50 nM.
With CCC1(c2ccc(N/C=C3\C(=O)Nc4ccc5ncsc5c43)cc2)CCC(=O)NC1=O (centres unmarked) [Example 48, 3-Ethyl-3-(4-{(Z)-[(7-oxo-6,7dihydro-8H-[1,3]thiazolo[5,4-e]indol-8-ylidene)methyl]amino}phenyl)-2,6-piperidinedione] the IC50 was 11 to 50 nM.
